Laboratory results reported in patent publication US9700546B2, “Trivalent chromium compounds, compositions and methods of use” (INTERHEALTH NUTRACEUTICALS, INC., priority 2006, dated 2017).

System: Obese Zucker rats
Experiment: In vivo assessment in obese Zucker rats: clinical chemistry (AP, BUN, CRT, AST, ALT)
Settings: mean ± SE

In order of falling “ALT (Alanine Aminotransferease)” value:
1. Chromium Dinicotinate Argininate [Cr(nic)2Arg]  147.33 u/L
2. Chromium Dinicotinate Phenylalanine [Cr(nic)2Phe]  108.00 u/L
3. Chromium Dinicotiante Glutamate [Cr(nic)2Glu]  105.57 u/L
4. Chromium Dinicotinate Aspartate [Cr(nic)2Asp]  96.00 u/L
5. Chromium Dinicotinate Glycinate [Cr(nic)2Gly, reference compound]  90.83 u/L
6. Chromium Dinicotinate Tryptophanate [Cr(nic)2Trp]  89.29 u/L

In order of rising “AP (Alkaline phosphatase)” value:
1. Chromium Dinicotinate Argininate [Cr(nic)2Arg]  40.20 u/L
2. Chromium Dinicotinate Glycinate [Cr(nic)2Gly, reference compound]  40.50 u/L
3. Chromium Dinicotinate Phenylalanine [Cr(nic)2Phe]  51.43 u/L
4. Chromium Dinicotiante Glutamate [Cr(nic)2Glu]  52.86 u/L
5. Chromium Dinicotinate Aspartate [Cr(nic)2Asp]  53.00 u/L
6. Chromium Dinicotinate Tryptophanate [Cr(nic)2Trp]  61.43 u/L

In order of falling “AST (Aspartate Aminotransferase)” value:
1. Chromium Dinicotinate Argininate [Cr(nic)2Arg]  241.50 u/L
2. Chromium Dinicotiante Glutamate [Cr(nic)2Glu]  176.71 u/L
3. Chromium Dinicotinate Glycinate [Cr(nic)2Gly, reference compound]  176.71 u/L
4. Chromium Dinicotinate Tryptophanate [Cr(nic)2Trp]  149.71 u/L
5. Chromium Dinicotinate Phenylalanine [Cr(nic)2Phe]  135.29 u/L
6. Chromium Dinicotinate Aspartate [Cr(nic)2Asp]  120.33 u/L

In order of rising “Anion Gap” value:
1. Chromium Dinicotinate Aspartate [Cr(nic)2Asp]  26.00
2. Chromium Dinicotiante Glutamate [Cr(nic)2Glu]  27.00
3. Chromium Dinicotinate Tryptophanate [Cr(nic)2Trp]  27.14
4. Chromium Dinicotinate Argininate [Cr(nic)2Arg]  27.60
5. Chromium Dinicotinate Phenylalanine [Cr(nic)2Phe]  27.71
6. Chromium Dinicotinate Glycinate [Cr(nic)2Gly, reference compound]  29.43

In order of falling “BUN (Blood Urea Nitrogen)” value:
1. Chromium Dinicotinate Argininate [Cr(nic)2Arg]  20.00 mg/dL
2. Chromium Dinicotinate Phenylalanine [Cr(nic)2Phe]  19.71 mg/dL
3. Chromium Dinicotinate Tryptophanate [Cr(nic)2Trp]  19.57 mg/dL
4. Chromium Dinicotiante Glutamate [Cr(nic)2Glu]  18.43 mg/dL
5. Chromium Dinicotinate Aspartate [Cr(nic)2Asp]  18.00 mg/dL
6. Chromium Dinicotinate Glycinate [Cr(nic)2Gly, reference compound]  16.71 mg/dL

In order of falling “CRT (Creatinine)” value:
1. Chromium Dinicotinate Argininate [Cr(nic)2Arg]  0.42 mg/dL
2. Chromium Dinicotinate Aspartate [Cr(nic)2Asp]  0.42 mg/dL
3. Chromium Dinicotiante Glutamate [Cr(nic)2Glu]  0.41 mg/dL
4. Chromium Dinicotinate Glycinate [Cr(nic)2Gly, reference compound]  0.40 mg/dL
5. Chromium Dinicotinate Tryptophanate [Cr(nic)2Trp]  0.40 mg/dL
6. Chromium Dinicotinate Phenylalanine [Cr(nic)2Phe]  0.39 mg/dL

In order of rising “Total Bilirubin” value:
1. Chromium Dinicotinate Argininate [Cr(nic)2Arg]  0.00 mg/dL
2. Chromium Dinicotinate Tryptophanate [Cr(nic)2Trp]  0.09 mg/dL
3. Chromium Dinicotinate Aspartate [Cr(nic)2Asp]  0.10 mg/dL
4. Chromium Dinicotiante Glutamate [Cr(nic)2Glu]  0.10 mg/dL
5. Chromium Dinicotinate Phenylalanine [Cr(nic)2Phe]  0.10 mg/dL
6. Chromium Dinicotinate Glycinate [Cr(nic)2Gly, reference compound]  0.10 mg/dL

In order of rising “BUN/CRT Ratio” value:
1. Chromium Dinicotinate Glycinate [Cr(nic)2Gly, reference compound]  41.07
2. Chromium Dinicotinate Aspartate [Cr(nic)2Asp]  45.83
3. Chromium Dinicotinate Tryptophanate [Cr(nic)2Trp]  48.93
4. Chromium Dinicotinate Phenylalanine [Cr(nic)2Phe]  51.43
